Bioassay records deposited in PubChem BioAssay by National Center for Advancing Translational Sciences (NCATS).
Nrf2 block = inhibitors of Nrf2 signaling; A549 ARE-Fluc reporter, luciferase luminescence, 18-24 h; Potency, µM (highest dose often 46 µM), usual class: inhibitors; hit rate 2.1% among 360,000; AID 504444; note: nearly all actives have a fitted effect of over 60% in size
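Concentration-response testing used A549 ARE_Fluc cells at 5000 cells/well. Following an 18-24 h compound incubation, viability was read by fluorescence (Ex 405/Em 525) and luciferase output by luminescence.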
ClpP mod = qHTS Assay for Activators of ClpP. purified B. subtilis ClpP, FRET peptide cleavage, 20 min. Potency, µM (titrated, usually from 57.5 µM). hit rate 1.9% among 340,000; active = well fitted falling curve with a large enough effect; inconclusive = small, poorly fitted or top-dose-only effect; inactive = no such curve, though single readings can be large or run the other way; note: the source files actives as falling curves though it sought activators and does not explain the sign; nearly all actives have a fitted effect of over 65% in size
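FRET quenching reversal measured ClpP activation: 10 microg/mL B. subtilis ClpP at pH 8 with the FRET-FV decapeptide, read at 430 nm after 320 nm excitation. The 20-min minus 0-min signal was scaled between DMSO/no-enzyme wells and ADEP (5.8 microM final).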
IL-2 act = IL-2 activation | activation, % (series mostly up to about 46 µM) | IL-2 activation reporter assay, cell-based qHTS; stimulated with anti-CD3/CD4/CD28 beads; in transgenic mouse T cells | hit rate 0.065% among 360,000 | AID 652025; in the data active = activation above about 50%; inconclusive = mostly about 30% to 49%
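First, unstimulated transgenic mouse T cells were exposed to compound for 60 min. Next, anti-CD3/anti-CD4-coated beads with anti-CD28 were added. Finally, after 18 h at 37 degrees C, EGFP and DsRed were imaged.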
miR-21 FLuc = raises the signal of a miR-21 reporter; HeLa miR-21 FLuc reporter, luciferase, 48 h; Potency, µM (top dose mostly 38.3 µM); AID 2288; 340,000 tested, under 10 active; active = well fitted rising curve with a large enough effect; inconclusive = small, poorly fitted or top-dose-only effect; inactive = no such curve, though single readings can be large or run the other way;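 note: miR-21 action dims this reporter so a rising signal means less miR-21 action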
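Compounds were titrated across several concentrations (up to approximately 40 uM) and incubated 48 hours with HeLa miR-21-FLuc reporter cells (miR-21 target sequence downstream of FLuc, endogenous miR-21). Readout was firefly luciferase luminescence after lytic detection reagent.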
Nrf2 activator = Nrf2 pathway activation; AREc32 ARE-luciferase reporter (MCF7-derived line), luminescence, 24 h; Potency, µM (doses to about 46.1 µM), hits mostly activators; hit rate 0.31% among 410,000; AID 624171; note: nearly all actives have a fitted effect of over 65% in size
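Luminescent ARE reporter assay in AREc32_Fluc cells: overnight plating at 37 deg C, 24 hr compound incubation, Steady-Glo added, 30 min RT before reading.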
A549 tox = counter-screen for Nrf2 inhibitors: cytotoxicity in A549 cells | A549 ARE-Fluc cells, CellTiter-Fluor viability, 18-24 h | Potency, µM (doses to about 46 µM), hits mostly inhibitors | hit rate 0.16% among 390,000 | AID 504648
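A549 ARE-Fluc cells in 5% FBS OPTI-MEM, 5000 cells/well, rested 2 h then exposed to compounds in concentration-response for 18-24 h at 37 °C. Viability by CellTiter-Fluor fluorescence (Ex 405/Em 525) after 30 min; luciferase luminescence (BugLite, 15 min, RT) read afterwards.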
Of the large screens only hits and unclear results are named; the others gave an inactive call. Most compounds without a hit are left out; they make up all but 3.7% or so of the library. Unless noted, calls come from the whole dose curve; as a rule, active = well fitted curve in the direction sought with a large enough effect; inconclusive = small, poorly fitted or top-dose-only effect, or another doubt; inactive = no such curve, though single readings can be large; an effect the other way counts as inactive or inconclusive.

CCOC(=O)COc1ccc(-c2nnc(-c3ccccc3)o2)cc1	ClpP mod inconclusive
CCOc1ccc(-c2nnc(NC(=O)COc3ccccc3F)o2)cc1	none (no result: Nrf2 block, miR-21 FLuc, A549 tox)
CCCCNC(=O)Nc1nnc(-c2ccc(OCC)cc2)o1	ClpP mod 25.1µM
CCOC(=O)CNC(=O)Nc1nnc(-c2ccc(OCC)cc2)o1	ClpP mod 6.31µM
COC(=O)c1ccccc1NC(=O)c1cc(-c2ccc(Cl)cc2)on1	none (no result: IL-2 act)
COc1ccc2[nH]c(=O)c(CN(CC3CCCO3)C(=O)Nc3ccccc3OC)cc2c1 (stereo not drawn)	ClpP mod 28.2µM
COc1ccc(N(Cc2cc3cc(OC)ccc3[nH]c2=O)C(=O)C2CCCO2)cc1 (stereo not drawn)	ClpP mod 17.8µM (no result: Nrf2 block)
COc1ccc2[nH]c(=O)c(CN(CCN3CCCC3)C(=O)Nc3ccccc3Cl)cc2c1	ClpP mod 31.6µM
COc1ccc2[nH]c(=O)c(CN(C(=O)C3CCCO3)c3ccc(C)c(C)c3)cc2c1 (stereo not drawn)	Nrf2 block inconclusive (no result: ClpP mod)
COc1ccccc1NC(=O)N(Cc1cc2cc(OC)c(OC)cc2[nH]c1=O)CC1CCCO1 (stereo not drawn)	none
Nc1[nH]c(=O)nc2c1ncn2C1OC(CO)C(O)C1O (stereo not drawn)	none (no result: IL-2 act, miR-21 FLuc, Nrf2 activator)
O=C1C2CC=CCC2C(=O)N1c1ccc(Cc2ccncc2)cc1 (stereo not drawn)	Nrf2 block 9.2µM
Cc1ccc(S(=O)(=O)CCSc2n[nH]c(=O)n2-c2ccccc2)cc1	Nrf2 block inconclusive, Nrf2 activator inconclusive
CCCn1c(SCc2nc3ccccc3s2)n[nH]c1=O	Nrf2 block inconclusive (no result: ClpP mod)
Cc1cc(C)c(-n2c(SCCS(=O)(=O)c3ccc(F)cc3)n[nH]c2=O)c(C)c1	miR-21 FLuc inconclusive, Nrf2 activator 8.91µM (no result: ClpP mod)
Cc1cc(C)c(-n2c(SCc3nc4ccccc4s3)n[nH]c2=O)c(C)c1	Nrf2 block 16.4µM
CCOc1ccccc1CNc1ncnc2onc(-c3ccc(F)cc3)c12	Nrf2 block inconclusive (no result: IL-2 act)
Cc1cccc(CC(Cc2nc3ccccc3[nH]2)c2nc3ccccc3[nH]2)c1 (stereo not drawn)	Nrf2 block 25.9µM, A549 tox inconclusive
Nc1ccccc1/C=C/c1ccnc2ccccc12	none (no result: Nrf2 block, IL-2 act, miR-21 FLuc, Nrf2 activator, A549 tox)
O=C(Nc1ccn(Cc2c(F)c(F)cc(F)c2F)n1)c1cccc(Cn2cc([N+](=O)[O-])cn2)c1	none (no result: Nrf2 block)
O=C(Nc1ccn(Cc2c(F)c(F)c(F)c(F)c2F)n1)c1cccc(Cn2cc([N+](=O)[O-])cn2)c1	Nrf2 block 18.4µM
CCOC(=O)NC1(C(F)(F)F)NC(=O)N(c2ccc(F)cc2)C1=O (stereo not drawn)	ClpP mod 35.5µM
CCOC(=O)NC1(C(F)(F)F)NC(=O)N(c2cccc(C(F)(F)F)c2)C1=O (stereo not drawn)	none
Cc1c(NC(=O)c2cccc(-c3cc4ccccc4oc3=O)c2)cccc1-c1nc2ncccc2o1	Nrf2 block inconclusive, ClpP mod 22.4µM
Cc1c(NC(=O)C(C)C)cccc1-c1nc2ncccc2o1	none
CCCCOc1cccc(C(=O)Nc2cccc(-c3nc4ncccc4o3)c2C)c1	Nrf2 block 16.4µM, miR-21 FLuc inconclusive (no result: IL-2 act)
CCCCC(=O)Nc1cccc(-c2nc3ncccc3o2)c1C	none
O=C(Nc1cccc(F)c1)c1ccc(-c2ccccc2)s1	none (no result: IL-2 act)
COc1cccc(CNC(=O)c2cccc(N3CCCS3(=O)=O)c2)c1	none (no result: IL-2 act)
C=Nc1ccc(/C=C/c2ccnc3ccccc23)cc1	none (no result: Nrf2 block, IL-2 act, miR-21 FLuc, Nrf2 activator, A549 tox)
COc1ccc(C2=NN(C(=O)c3cccs3)C(c3ccccc3O)C2)cc1 (stereo not drawn)	Nrf2 block 23.1µM, A549 tox inconclusive
COc1cccc(C2CC(c3cccs3)=NN2C(=O)CSc2nc3ccccc3s2)c1OC (stereo not drawn)	ClpP mod 28.2µM
